Reference: patent publication US20230126447A1, “OCULAR DRUG DEPOT FOR COMPLEMENT-MEDIATED DISORDERS” (priority 2020, published 2023)

By UniProt entry, the sequences of proteins in these tests, tags left out. Residues count along the entry.
UniProt P00746, 26-253: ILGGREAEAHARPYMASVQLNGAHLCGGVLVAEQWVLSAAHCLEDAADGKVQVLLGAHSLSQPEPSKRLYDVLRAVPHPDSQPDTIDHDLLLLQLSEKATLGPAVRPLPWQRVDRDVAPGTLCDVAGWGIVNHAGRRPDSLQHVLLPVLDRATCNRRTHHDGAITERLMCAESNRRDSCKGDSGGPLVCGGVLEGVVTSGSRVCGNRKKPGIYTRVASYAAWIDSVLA

Legend:
CFD [1] = molecular target: T1, CFD (Homo sapiens, UniProt P00746); test: biochemical
CFD [2] = molecular target: T1, CFD; test: Inhibitory effect on CFD; format: biochemical

Q: What does the source list for `CC(=O)c1nn(CC(=O)N2C[C@H](F)C[C@H]2C(=O)Nc2cccc(Br)n2)c2ccc(-c3cnc(C)nc3)cc12` [Compound 1, (2S,4R)-1-(2-(3-Acetyl-5-(2-methylpyrimidin-5-yl)-1H-indazol-1-yl)acetyl)-N-(6-bromopyridin-2-yl)-4-fluoropyrrolidine-2-carboxamide]?
A: IC50 (CFD [1]): 0.025 µM; IC50 (CFD [2]): 0.00054 µM
